# Test results published in publication PMC6050272, “A TRAF3-NIK module differentially regulates DNA vs RNA pathways in innate immune signaling” (Nature Communications, 2018).
# B1: stimulator of interferon genes (STING), epitope-tagged (HA-STING; Myc-STING) (natural protein, UniProt Q86WV6 1-379, looked up)
# chain: MPHSSLHPSIPCPRGHGAQKAALVLLSACLVTLWGLGEPPEHTLRYLVLHLASLQLGLLLNGVCSLAEELRHIHSRYRGSYWRTVRACLGCPLRRGALLLLSIYFYYSLPNAVGPPFTWMLALLGLSQALNILLGLKGLAPAEISAVCEKGNFNVAHGLAWSYYIGYLRLILPELQARIRTYNQHYNNLLRGAVSQRLYILLPLDCGVPDNLSMADPNIRFLDKLPQQTGDHAGIKDRVYSNSIYELLENGQRAGTCVLEYATPLQTLFAMSQYSQAGFSREDRLEQAKLFCRTLEDILADAPESQNNCRLIAYQEPADDSSFSLSQEVLRHLRQEEKEEVTVGSLKTSAVPSTSTMSQEPELLISGMEKPLPLRTDFS
# notes: STING (TMEM173); the plasmid is 'described elsewhere'; Each copy carries one tag only: HA-STING or Myc-STING; also called TMEM173; MPYS; source: HEK 293T, co-transfected, in lysate
# Target: the molecule itself
# Experiment: semi-native SDS PAGE; whole-cell lysates of HEK 293T cells transfected with HA-STING with or without NIK; native sample buffer without β-mercaptoethanol, not boiled, run on SDS gels; immunoblot
protein,measurement,value
B1,stoichiometry N,2
